For this data set the following is noted: FOSA group: Fosamax 10 mg/kg oral.

Like-named read-outs stand apart in the source and are kept apart here.

We go through one compound from US7671039B2, “Composition containing beta-glucan for prevention and treatment of osteoporosis” (Glucan Corporation, priority 2004, dated 2010).

Turning to `NCCCC(O)(P(=O)(O)O)P(=O)(O)O` [FOSA, sodium alendronate], the body weight stood at 25.30 ± 1.17 (1 times per day for 4 weeks, A: after immediately surgical operation); 33.68 ± 2.61 (B: after 4 weeks of surgical operation); 31.56 ± 1.81 (C: after immediately administration); 32.86 ± 4.20 (E: after 2 weeks of administration); 37.02 ± 3.93 (F: after 4 weeks of administration); 31.70 ± 3.73 (G: after sacrifice).
